Legend:
purified protein [1] = substrate: Cc1cc2nc3c(=O)[nH]c(=O)nc-3n(C[C@H](O)[C@H](O)[C@H](O)COP(=O)(O)O)c2cc1C; assay: purified protein; conditions: FMNAT activity, saturating ATP, 20 mM PIPES, 10 mM MgCl2, pH 7.0, 25 °C
purified protein [2] = substrate: Nc1ncnc2c1ncn2[C@@H]1O[C@H](COP(=O)(O)OP(=O)(O)OP(=O)(O)O)[C@@H](O)[C@H]1O; assay: purified protein; conditions: FMNAT activity, saturating FMN, 20 mM PIPES, 10 mM MgCl2, pH 7.0, 25 °C

B1: CaFADS (Corynebacterium ammoniagenes) (protein)
chain: MDIWYGTAAVPKDLDNSAVTIGVFDGVHRGHQKLINATVEKAREVGAKAIMVTFDPHPVSVFLPRRAPLGITTLAERFALAESFGIDGVLVIDFTRELSGTSPEKYVEFLLEDTLHASHVVVGANFTFGENAAGTADSLRQICQSRLTVDVIDLLDDEGVRISSTTVREFLSEGDVARANWALGRHFYVTGPVVRGAGRGGKELGFPTANQYFHDTVALPADGVYAGWLTILPTEAPVSGNMEPEVAYAAAISVGTNPTFGDEQRSVESFVLDRDADLYGHDVKVEFVDHVRAMEKFDSVEQLLEVMAKDVQKTRTLLAQDVQAHKMAPETYFLQAES
- Km (purified protein [1]): 6 ± 1 µM
- kcat (purified protein [1]): 0.65 ± 0.017 s⁻¹
- kcat/Km (purified protein [1]): 100000 M⁻¹ s⁻¹
- Km (purified protein [2]): 43 ± 8 µM
- kcat (purified protein [2]): 0.65 ± 0.017 s⁻¹
- kcat/Km (purified protein [2]): 15000 M⁻¹ s⁻¹

— PMC7279473, “Insights into the FMNAT Active Site of FAD Synthase: Aromaticity Is Essential for Flavin Binding and Catalysis” (International Journal of Molecular Sciences, 2020)
